Results taken from patent US6878698B2, “Anti-inflammatory androstane derivatives” (Glaxo Group Limited, priority 2001, dated 2005).
Values joined by “and” are separate entries in the source; they are usually repeats but may differ in a detail not shown here. Equal entries are not always repeated.

Assay: Pharmacokinetics after intravenous (IV) and oral dosing in rats
Settings: oral 0.1 mg/kg and IV 0.1 mg/kg, male Wistar Han rats

## C[C@@H]1CC2C3C[C@H](F)C4=CC(=O)C=C[C@]4(C)[C@@]3(F)[C@@H](O)C[C@]2(C)[C@@]1(OC(=O)c1ccco1)C(=O)SCF (stereo partly drawn) [Example 1, 6α,9α-Difluoro-17α-[(2-furanylcarbonyl)oxy]-11β-hydroxy-16α-methyl-3-oxo-androsta-1,4-diene-17β-carbothioic acid S-fluoromethyl ester]
  oral bioavailability: < 1% and 0.9%
